Measured values published in ChEMBL document CHEMBL3393026, “A selective small molecule NOP (ORL-1 receptor) partial agonist for the treatment of anxiety” (Bioorg Med Chem Lett, 2015).

Assays:
Mu-type opioid receptor = Mu-type opioid receptor (Homo sapiens, UniProt P35372); assay: Displacement of [3H]DAMGO from human Mu opioid receptor expressed in HEK293 cells after 2 hrs by scintillation counting
Nociceptin receptor = Nociceptin receptor (Homo sapiens, UniProt P41146); assay: Displacement of [125I]-Tyr14-nociceptin from human ORL1 expressed in HEK293 cells after 2 hrs by scintillation counting

Compound	IC50 (Mu-type opioid receptor)	IC50 (Nociceptin receptor)
COc1ccc(CCOC[C@H](O)CN2CN(c3ccc(F)cc3)C3(CCN(CC4CCCCCCC4)CC3)C2=O)cc1OC	2600 nM	
O=C1N(C[C@@H](O)CNCc2cccs2)CN(c2ccccc2)C12CCN(CCc1ccccc1-c1cccs1)CC2	29 nM	160 nM
Cc1ccc(CN(C[C@H](O)CN2CN(c3ccc(F)cc3)C3(CCN(CC4CCCCCCC4)CC3)C2=O)C(=O)[C@H](N)C(C)C)cc1		18 nM
COc1ccc(CCNC[C@@H](O)CN2CN(c3ccccc3)C3(CCN(CCc4ccccc4-c4cccs4)CC3)C2=O)cc1OC	79 nM	3.9 nM
Cc1ccccc1CNC[C@H](O)CN1CN(c2ccccc2)C2(CCN(CCc3ccccc3-c3cccs3)CC2)C1=O	69 nM	
Cc1ccccc1CNC[C@@H](O)CN1CN(c2ccccc2)C2(CCN(CCc3ccccc3-c3cccs3)CC2)C1=O	103 nM	
COc1ccc(CNC[C@@H](O)CN2CN(c3ccccc3)C3(CCN(CCc4ccccc4-c4cccs4)CC3)C2=O)cc1	110 nM	
O=C1N(C[C@H](O)CNCc2cccs2)CN(c2ccccc2)C12CCN(CCc1ccccc1-c1cccs1)CC2	80 nM	8 nM
